Experiments:
[1] = molecular target: human recombinant CYP19A1 (Homo sapiens, UniProt P11511); test: Recombinant enzyme aromatase activity inhibition assay; assay type: biochemical; conditions: read-out: IC50 of aromatase inhibition; follow-up dose–response assay
Procedure: An aromatase inhibition assay was also included in the in vitro assay panel. This enzyme – otherwise known as CYP19A1 - is responsible for converting androgens into estrogens (Blakemore and Naftolin 2016; Bulun 2014); therefore, chemicals that inhibit aromatase activity can lead to reduced estrogen production, which can affect reproductive and developmental processes (Kragie 2002; Tiboni and Ponzano 2016).
The metabolite, estradiol, was measured by time-resolved fluorescence according to the method described previously (Ji et al. 2014). Enzyme inhibition was calculated as a % inhibition of control enzyme activity.

Chains of the proteins cited; added tags and fusions are not shown. Lines headed by an entry give the natural chain unless they say otherwise; changes in a name come on top.
UniProt P11511: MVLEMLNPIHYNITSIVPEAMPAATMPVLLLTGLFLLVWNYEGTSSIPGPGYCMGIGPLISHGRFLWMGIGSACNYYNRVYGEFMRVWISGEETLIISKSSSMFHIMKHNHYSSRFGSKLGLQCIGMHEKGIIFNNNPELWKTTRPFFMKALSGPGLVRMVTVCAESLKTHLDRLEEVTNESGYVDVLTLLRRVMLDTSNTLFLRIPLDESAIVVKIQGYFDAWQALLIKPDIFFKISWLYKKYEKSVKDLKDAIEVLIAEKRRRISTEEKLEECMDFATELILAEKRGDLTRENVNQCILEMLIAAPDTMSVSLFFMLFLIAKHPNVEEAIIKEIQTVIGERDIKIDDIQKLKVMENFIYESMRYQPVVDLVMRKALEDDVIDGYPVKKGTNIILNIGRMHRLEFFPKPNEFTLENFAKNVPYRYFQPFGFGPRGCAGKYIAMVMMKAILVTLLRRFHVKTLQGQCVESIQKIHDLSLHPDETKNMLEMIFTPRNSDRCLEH

rats = system: rats; set-up: method as in George et al. [2001]; conditions: ref George et al. [2001], cited from earlier work

Substance: isoeugenol
- IC50 [1]: 61 µM
- maternal toxicity (rats; 250–1000 mg/kg/day): some maternal toxicity at all does
- dose with no treatment-related effects on foetuses (rats): up to 500 mg/kg/day

Reference: article PMC10761396, “Evaluation of new alternative methods for the identification of estrogenic, androgenic and steroidogenic effects: a comparative in vitro/in silico study” (Archives of Toxicology, 2023)
